Source: patent publication EP4825842A1, “DIVALENT BET DECOMPOSITION AGENT AND TARGETING MOLECULE-DRUG COMPLEX” (dated 2026)

What was measured:
[1] = system: SU-DHL-4 cells; assay: Test Example 1: in vitro cell survival inhibitory effect of compound using SU-DHL-4 cell line; settings: read-out: SU-DHL-4 IC50; 50% rate of inhibition of cell survival; 72 hours; Cell Counting Kit-8
Procedure: SU-DHL-4 cells (Code No. ACC 495, Deutsche Sammlung von Mikroorga nismen und Zellkulturen GmbH; DSMZ) were cultured in RPMI1640 medium (Code No. 11875-093, Thermo Fisher Scientific Inc.) supplemented with heat-inactivated fetal bovine serum (FBS: Code No. 10099-148, Thermo Fisher Scientific Inc.) in an amount that attained a final concentration of 10 vol% and a penicillin/streptomycin solution (PS: Code No. 15140-122, Thermo Fisher Scientific Inc.) in an amount that attained a final concentration of 1 vol% at 37°C using a CO2 incubator (95% air, 5% CO2). The cells were passaged at intervals of twice per week so as to maintain a cell density of 1 × 10 ^6 cells/mL or less in a volume of 20 to 40 mL.
The cultured SU-DHL-4 cells were seeded at 2000 cells/well to a transparent 384-well plate (Code No. 781182, Greiner bio-one). The cells thus seeded were precultured at 37°C for 18 to 25 hours in a CO2 incubator. Subsequently, a 1, 0.1, or 0.01 mmol/L solution of a test compound in DMSO was prepared, and nine serial dilutions were prepared at a dilution factor of √10 so as to attain 200 times the final concentration using the RPMI1640 medium containing FBS and PS, and added in a volume of 1/200 to each well. The final concentration of DMSO was set to 0.1 vol% for this preparation. The cells thus supplemented with the test compound were cultured at 37°C for 72 hours in a CO2 incubator. Subsequently, 0.020 mL of a solution of Cell Counting Kit-8 (Code No. CK04, Dojindo Laboratories) diluted 2-fold or 4-fold with phosphate-buffered saline (PBS) was added to each well. Color reaction was performed at 37°C for 2 to 3 hours in a CO2 incubator, followed by absorbance measurement at a wavelength of 450 nm using SpectraMax 340PC (Molecular Devices, LLC).

[2] = system: HIP-009 cells; assay: Test Example 2: in vitro cell survival inhibitory effect of compound using nerve cell (HIP-009 cell); settings: for Nerve selectivity: calculated from HIP-009 IC50 and SU-DHL-4 IC50; for Degree of improvement (vs. comparative compound): neural selectivity of each compound / neural selectivity of the comparative compound; for IC50: read-out: HIP-009 IC50, 50% rate of inhibition of cell survival, differentiated nerve cells, 7 days, total area occupied by the cells
Procedure: HIP-009 cells (Code No. 23002-009, Hippocampal Neural Stem Cells, Cosmo Bio Co., Ltd.) were cultured in Neural Stem Cell Growth Media (Code No. 21001-250, Cosmo Bio Co., Ltd.) at 37°C for 2 to 4 weeks using a CO2 incubator (95% air, 5% CO2) until confluency with half-volume media exchanges once or twice per week, then allowed to differentiate in Neuro Transition Media (Code No. 21003-250, Cosmo Bio Co., Ltd.), and seeded at 5000 to 10000 cells/0.04 mL/well to a 384-well plate (Code No. 781091, Greiner bio-one) using Neural Differentiation media (Code No. 210040250, Cosmo Bio Co., Ltd.). Neurites were elongated with half-volume media exchanges once or twice per week. Each medium was supplemented with supplements as described in the instruction and used after being allowed to pass through a 0.22 µm filter. The cells were used in evaluation 3 weeks or later after seeding to the 384-well plate by confirming the elongated neurites.
In order to detach the cells, Trypsin (Code No. 41004-100, Cosmo Bio Co., Ltd.) was added thereto, and the mixture was incubated at 37°C for 3 to 10 minutes using a CO2 incubator (95% air, 5% CO2). Cell detachment reaction was stopped by the addition of Trypsin Inhibitor (Code No. 41005-100, Cosmo Bio Co., Ltd.) in an equal amount.
The 384-well plate was subjected to the following operation before cell seeding. A poly(ethylenimine) solution (Code No. 03880-100ML, Sigma-Aldrich Co., LLC) was diluted with 1 × Borate Buffer (dilution of Pierce 20 × Borate Buffer (Code No. 28341, Thermo Fisher Scientific Inc.)) to prepare a 0.07% poly(ethylenimine) solution, 0.02 mL of which was added to each well and incubated at 37°C for 1 hour. Then, the plate was washed twice with 0.1 mL of PBS and once with 0.1 mL of Otsuka distilled water and left standing overnight for drying. 0.02 mL of Laminin from Engelbreth-Holm-Swarm murine sarcoma basement membrane (Code No. L2020-1MG, Sigma-Aldrich Co., LLC) diluted into 0.0033 mg/mL with PBS was added to each well and incubated at 37°C for 1 hour. Laminin was sucked out, then 0.1 mL of Otsuka distilled water was added to the plate until just before seeding, and the plate was left standing.
The cells of day 0 were photographed using Cell3iMager duos (SCREEN Holdings Co., Ltd.) before addition of a test compound, and the total area occupied by the cells was calculated. Nine serial dilutions of the test compound (10000 mmol/L solution in DMSO) were prepared at a dilution factor of √10 so as to attain 5 times the final concentration using the Neural Differentiation Media, and added in a volume of 1/5 to each well. The final concentration of DMSO was set to 0.1 vol% for this preparation. The cells thus supplemented with the test compound were cultured at 37°C for 7 days in a CO2 incubator (95% air, 5% CO2). The cells of day 7 were photographed using Cell3iMager duos, and the total area occupied by the cells was calculated. […] Rate of inhibition of cell survival(%) = 100−A/B × 100 [formula] • A: Total area of the cells of day 7 • B: Total area of the cells of day 0
The results were as shown in the column "HIP-009 IC50 (nmol/L)" in Table 33 below. The selectivity of each compound for nerve cells was calculated according to the following formula using the results thus obtained and the results of Test Example 1. [formula]
Degree of improvement (vs. the comparative compound) = Neural selectivity of each compound / Neural selectivity of the comparative compound

Row | SMILES | IC50 [1] [nM] | Nerve selectivity [2] | Degree of improvement (vs. comparative compound) [2] | IC50 [2] [nM]
1 | CCC(=O)N1c2ccccc2[C@H](Nc2ccc(NC(=O)CNC(=O)Nc3ccc(OCCN4CCN(C(C)=O)CC4)cc3F)cc2)C[C@@H]1C | 0.1 | 2000 | ④ 45 | 200
2 | CCC(=O)N1c2ccccc2[C@H](Nc2ccc(NC(=O)CNC(=O)Nc3ccc(N[C@@H]4C[C@H](C)N(C(=O)CC)c5ccccc54)cc3)cc2)C[C@@H]1C | 0.098 | 130 | – | 13
3 | CCC(=O)N1c2ccccc2[C@H](Nc2ccc(NC(=O)CNC(=O)Nc3ccc(OCCN4CCN(C(C)=O)[C@H](C)C4)cc3)cc2)C[C@@H]1C | 0.14 | 3900 | 30 | 520
4 | CCC(=O)N1c2ccccc2[C@H](Nc2ccc(NC(=O)CNC(=O)Nc3ccc(OCCN4CCN(C(C)=O)C(C)(C)C4)cc3)cc2)C[C@@H]1C | 1.8 | 1400 | 11 | 2500
5 | CCC(=O)N1c2ccccc2[C@H](Nc2ccc(NC(=O)CNC(=O)Nc3ccc(OCCN4C[C@H]5C[C@@H]4CN5C(C)=O)cc3)cc2)C[C@@H]1C | 0.27 | 2600 | 20 | 720
6 | CCC(=O)N1CCN(CCOc2ccc(NC(=O)NCC(=O)Nc3ccc(N[C@@H]4C[C@H](C)N(C(=O)CC)c5ccccc54)cc3)cc2)CC1 | 0.2 | 4300 | 33 | 850
7 | CCC(=O)N1c2ccccc2[C@H](Nc2ccc(NC(=O)CNC(=O)Nc3ccc(OCCN4CCN(C)C(=O)[C@H]4C)cc3)c(Cl)c2)C[C@@H]1C (relative stereo) | 0.11 | 550 | ④ 13 | 60
8 | CCC(=O)N1c2ccccc2[C@H](Nc2ccc(NC(=O)CNC(=O)Nc3ccc(OCCN4[C@H](C)CN(C(C)=O)C[C@H]4C)cc3)cc2)C[C@@H]1C | 0.61 | 1600 | 12 | 980
9 | CCC(=O)N1c2ccccc2[C@H](Nc2ccc(NC(=O)CNC(=O)Nc3ccc(OCCN4CCC(=O)N(C)CC4)cc3)cc2)C[C@@H]1C | 0.021 | 4500 | 35 | 96
10 | CCC(=O)N1c2ccccc2[C@H](Nc2ccc(NC(=O)CNC(=O)Nc3ccc(OCCN4CCN(C(C)=O)CC4)cc3)cc2)C[C@@H]1C | 0.075 | 6300 | 48 | 480
11 | CCC(=O)N1c2ccccc2[C@H](Nc2ccc(NC(=O)CNC(=O)Nc3ccc(OCCc4oc(C)nc4C)cc3)cc2)C[C@@H]1C | 0.12 | 1600 | ④ 37 | 190
12 | CCC(=O)N1c2ccc(Cl)cc2[C@H](Nc2ccc(NC(=O)CNC(=O)Nc3ccc(OCCN4CCN(C)C(=O)[C@H]4C)cc3)cc2)C[C@@H]1C (relative stereo) | 0.065 | 710 | – | 46
